The text below walks through data of patent publication US20260382605A1, “REVERSIBLE MACROCYCLIC KINASE INHIBITORS” (published 2026).

The chains behind the UniProt entries cited, without tags or fusion partners. Residues count along the entry.
UniProt P07949, 29-1114 limits assumed: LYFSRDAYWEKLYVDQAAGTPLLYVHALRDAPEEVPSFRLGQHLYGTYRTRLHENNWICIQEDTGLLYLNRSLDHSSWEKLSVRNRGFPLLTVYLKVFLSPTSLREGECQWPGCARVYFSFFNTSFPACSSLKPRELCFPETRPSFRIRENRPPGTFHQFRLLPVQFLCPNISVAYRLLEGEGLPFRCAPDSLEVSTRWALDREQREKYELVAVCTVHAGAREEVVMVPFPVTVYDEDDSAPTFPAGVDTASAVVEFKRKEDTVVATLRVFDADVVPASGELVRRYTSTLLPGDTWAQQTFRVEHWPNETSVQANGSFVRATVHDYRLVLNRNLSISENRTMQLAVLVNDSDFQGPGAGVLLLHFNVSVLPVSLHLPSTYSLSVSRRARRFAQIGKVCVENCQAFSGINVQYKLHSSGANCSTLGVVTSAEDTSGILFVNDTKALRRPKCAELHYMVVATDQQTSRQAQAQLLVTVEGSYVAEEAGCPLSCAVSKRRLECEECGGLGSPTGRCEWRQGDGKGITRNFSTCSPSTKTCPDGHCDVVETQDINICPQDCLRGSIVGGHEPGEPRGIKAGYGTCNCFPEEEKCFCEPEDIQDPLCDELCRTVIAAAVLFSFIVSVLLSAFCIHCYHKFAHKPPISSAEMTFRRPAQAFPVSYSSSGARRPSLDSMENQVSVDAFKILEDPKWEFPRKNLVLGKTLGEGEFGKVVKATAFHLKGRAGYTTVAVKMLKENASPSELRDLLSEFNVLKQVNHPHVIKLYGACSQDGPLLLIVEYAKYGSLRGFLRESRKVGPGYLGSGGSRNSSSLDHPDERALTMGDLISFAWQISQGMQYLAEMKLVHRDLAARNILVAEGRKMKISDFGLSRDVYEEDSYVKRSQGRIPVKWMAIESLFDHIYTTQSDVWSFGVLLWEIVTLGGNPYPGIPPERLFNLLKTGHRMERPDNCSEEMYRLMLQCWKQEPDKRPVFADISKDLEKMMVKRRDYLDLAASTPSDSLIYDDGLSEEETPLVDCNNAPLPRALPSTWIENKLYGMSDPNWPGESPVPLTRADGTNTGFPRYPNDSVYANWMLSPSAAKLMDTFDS
UniProt Q06187, whole entry: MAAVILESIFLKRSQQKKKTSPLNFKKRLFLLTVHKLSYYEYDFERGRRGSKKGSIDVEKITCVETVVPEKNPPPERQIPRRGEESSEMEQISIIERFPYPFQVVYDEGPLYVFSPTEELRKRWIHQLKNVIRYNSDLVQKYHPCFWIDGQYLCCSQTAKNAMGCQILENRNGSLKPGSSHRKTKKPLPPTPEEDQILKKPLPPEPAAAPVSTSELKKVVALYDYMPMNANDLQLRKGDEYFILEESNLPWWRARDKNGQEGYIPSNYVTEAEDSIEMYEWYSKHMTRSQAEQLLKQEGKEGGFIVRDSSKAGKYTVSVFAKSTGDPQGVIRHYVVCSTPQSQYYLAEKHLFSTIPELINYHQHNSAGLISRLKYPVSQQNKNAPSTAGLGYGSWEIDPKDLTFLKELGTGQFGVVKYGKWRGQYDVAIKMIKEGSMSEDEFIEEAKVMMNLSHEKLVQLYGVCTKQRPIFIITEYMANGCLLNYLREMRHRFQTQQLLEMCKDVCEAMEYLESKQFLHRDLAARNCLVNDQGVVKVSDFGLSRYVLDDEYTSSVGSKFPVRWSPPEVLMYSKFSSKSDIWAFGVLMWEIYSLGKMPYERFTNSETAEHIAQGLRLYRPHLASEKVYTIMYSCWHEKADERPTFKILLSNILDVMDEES
UniProt P35968, 20-1356 limits assumed: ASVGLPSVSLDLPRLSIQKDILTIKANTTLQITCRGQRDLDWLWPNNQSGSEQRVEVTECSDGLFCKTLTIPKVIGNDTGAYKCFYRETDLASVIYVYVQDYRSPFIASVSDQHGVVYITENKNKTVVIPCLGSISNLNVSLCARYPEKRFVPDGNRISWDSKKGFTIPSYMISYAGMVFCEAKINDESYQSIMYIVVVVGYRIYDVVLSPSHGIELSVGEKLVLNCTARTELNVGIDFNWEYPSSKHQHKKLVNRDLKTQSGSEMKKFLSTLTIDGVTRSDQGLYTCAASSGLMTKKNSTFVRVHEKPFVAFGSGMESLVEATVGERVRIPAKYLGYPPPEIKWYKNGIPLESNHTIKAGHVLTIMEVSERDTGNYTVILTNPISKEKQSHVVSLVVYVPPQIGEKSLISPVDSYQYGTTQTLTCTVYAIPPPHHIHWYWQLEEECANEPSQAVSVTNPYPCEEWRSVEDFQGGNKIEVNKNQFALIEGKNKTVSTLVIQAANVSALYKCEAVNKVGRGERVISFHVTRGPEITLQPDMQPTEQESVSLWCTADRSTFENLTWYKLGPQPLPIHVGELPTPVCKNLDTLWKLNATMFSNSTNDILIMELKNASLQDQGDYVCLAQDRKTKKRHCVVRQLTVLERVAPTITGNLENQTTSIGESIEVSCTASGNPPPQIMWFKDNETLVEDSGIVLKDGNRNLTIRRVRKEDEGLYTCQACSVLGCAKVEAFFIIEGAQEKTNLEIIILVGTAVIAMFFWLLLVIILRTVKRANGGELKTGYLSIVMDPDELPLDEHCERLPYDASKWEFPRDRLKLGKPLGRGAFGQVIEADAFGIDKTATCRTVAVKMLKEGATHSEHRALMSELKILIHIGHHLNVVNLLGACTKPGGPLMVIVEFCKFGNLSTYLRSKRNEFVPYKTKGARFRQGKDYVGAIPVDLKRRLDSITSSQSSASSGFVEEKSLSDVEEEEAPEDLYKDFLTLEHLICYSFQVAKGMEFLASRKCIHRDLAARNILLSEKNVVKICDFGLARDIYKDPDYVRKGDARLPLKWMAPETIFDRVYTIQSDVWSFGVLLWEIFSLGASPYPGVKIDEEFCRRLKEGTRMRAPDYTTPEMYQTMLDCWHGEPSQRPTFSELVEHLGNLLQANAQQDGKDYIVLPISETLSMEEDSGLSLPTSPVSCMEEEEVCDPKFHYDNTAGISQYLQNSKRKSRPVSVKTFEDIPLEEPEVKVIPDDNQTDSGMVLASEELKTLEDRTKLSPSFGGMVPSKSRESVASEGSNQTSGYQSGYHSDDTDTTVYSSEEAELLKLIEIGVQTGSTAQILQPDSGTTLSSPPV
UniProt Q02750, whole entry: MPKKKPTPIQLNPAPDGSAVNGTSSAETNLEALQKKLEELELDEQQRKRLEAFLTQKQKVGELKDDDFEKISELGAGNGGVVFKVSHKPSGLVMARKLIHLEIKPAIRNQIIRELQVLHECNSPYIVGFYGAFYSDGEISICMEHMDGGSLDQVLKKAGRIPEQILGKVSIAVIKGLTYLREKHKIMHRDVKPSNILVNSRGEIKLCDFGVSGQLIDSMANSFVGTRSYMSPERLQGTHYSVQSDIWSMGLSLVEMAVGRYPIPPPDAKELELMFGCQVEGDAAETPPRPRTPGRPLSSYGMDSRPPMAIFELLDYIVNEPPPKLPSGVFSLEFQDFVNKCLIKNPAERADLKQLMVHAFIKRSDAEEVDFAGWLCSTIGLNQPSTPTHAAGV

Test [1] concerns MOLM-13 acute myelogenous leukemia cells. Description: Cell proliferation assay MOLM-13. As to conditions: read-out: IC50 value, MOLM-13 cells, 72 hours. On the procedure:
(§1) MOLM-13 acute myelogenous leukemia cells were purchased from Deutsche Sammlung von Mikroorganismen und Zellkulturen (cat. no. ACC 554, DSMZ). Frozen stocks were thawed and cells were diluted in RPMI-1640 cell culture medium (cat. no. 61870036, Life Technologies), supplemented with 10% (v/v) bovine calf serum and 1% penicillin/streptavidin. 800 cells per well (in 45 μl) were seeded in a white 384-well culture plate (cat. no. 781080, Greiner Bio-One) and allowed to rest for 24 hours at 37 °C, 95% humidity, and 5% CO2. 5 μl compound solution was added to the cells and incubation was continued for 72 hours (3 days), followed by addition of 24 μl ATPlite 1Step™ (PerkinElmer, Groningen, The Netherlands) solution was added to each well. Luminescence was recorded on an Envision multimode reader. The cell signal at the start of incubation was recorded separately in order to distinguish between cell population growth and cell death. In addition, maximum growth was determined by incubation of a duplicate without compound in the presence of 0.3% DMSO. Percentage growth was used as the main y-axis signal. IC50s were fitted by non-linear regression using IDBS XLfit™5 using a 4-parameter logistic curve, yielding a maximum signal, minimum signal, hill-parameter and IC50.

In a further test the target is RET (Homo sapiens, UniProt P07949). Put plainly: Binding kinetics assay (surface plasmon resonance) RET. As to conditions: SPR, 22 °C.
A further test concerns the target BTK (Act) (Homo sapiens, UniProt Q06187). Description: Binding kinetics assay (surface plasmon resonance) wt-BTK. As to conditions: SPR, 22 °C. The source says:
(§2) Binding Kinetics Assay wt-BTK, BTK C481S, LCK, FGFR1, FLT3, PDGFR-β, FMS, LYN, MEK1, AUR-B. ITK. VEGFR, EGFR, FGFR3, AXL, c-MET, SRC, YES, ABL, RET and IGFR1 (Surface Plasmon Resonance)
(§3) Streptavidin-coated chips (Cat. No. BR100531), disposables and maintenance kits for Biacore were purchased from Cytiva (Eindhoven, The Netherlands). Biotinylated wt-BTK enzym (Carna Biosciences, cat. no. 08-480-20N), BTK C481S (Carna Biosciences, cat. no. 08-417-20N), LCK (Carna Biosciences, cat. no. 08-470-20N), FGFR1 (Carna Biosciences, cat. no. 08-435-20N), FLT3 (Carna Biosciences, cat. no. 08-454-20N), PDGFR-β (Carna Biosciences, cat. no. 08-458-20N), FMS (Carna Biosciences, cat. no. 08-455-20N), LYN (Carna Biosciences, cat. no. 08-471-20N), MEK1 (Carna Biosciences, cat. no. 07-441-10-20N), AUR-B (Carna Biosciences, cat. no. 05-402-21N), ITK (Carna Biosciences, cat. no. 08-481-20N), VEGFR (Carna Biosciences, cat. no. 08-491-20N), EGFR (Carna Biosciences, cat. no. 08-415-20N), FGFR3 (Carna Biosciences, cat. no. 08-433-20N), AXL (Carna Biosciences, cat. no. 08-407-20N), c-MET (Carna Biosciences, cat. no. 08-451-20N), SRC (Carna Biosciences, cat. no. 08-473-20N), YES (Carna Biosciences, cat. no. 08-475-20N), ABL (Carna Biosciences, cat. no. 08-401-20N), RET (Carna Biosciences, cat. no. 08-459-20N) or IGFR1 (Carna Biosciences, cat. no. 08-441-20N) were immobilized on a streptavidin-coated chip to a level of about 8000 resonance units (RU) using Biacore buffer (50 mM Tris pH 7.5, 0.05% (v/v) Tween-20, 150 mM NaCl and 5 mM MgCl2)+1 mM TCEP. Remaining streptavidin was blocked with biocytin. Immobilization was performed at 4 °C. Subsequent assay steps were conducted at 22 °C. After changing buffer to Biacore buffer with 1% (v/v) dimethylsulfoxide (DMSO), a pre-run was performed for a period of at least 30 min at a flow rate of 30 μl/min to obtain a stable surface. The kinetic constants of the compounds were determined with single cycle kinetics with five consecutive injections with an increasing compound concentration with ranges of 3.16-316 nM. Experiments were performed with an association time of 100 s per concentration and a dissociation time of 1200 s, except for compounds with a long target residence time, such as irreversible inhibitors, where dissociation time was increased. To circumvent problems of mass transport limitation, a flow rate of 30 μl/min was used. A blank run with the same conditions was performed before the compound was injected. The SPR sensorgrams were analyzed with Biacore Evaluation Software by using a method of double referencing. First the reference channel was subtracted from the channel containing immobilized protein. Subsequently, the reference curve obtained with buffer injections was subtracted. The resulting curve was fitted with a 1:1 binding model. Compounds that bound according to an induced fit model were fitted with a two-state reaction model. The kinetic constants (ka, ka, KD) of duplicates were geometrically averaged. Target residence time (τ) for the 1:1 binding model was calculated from the dissociation constant kd with the formula T=1/kd. Target residence for an induced fit model was calculated as described (Tummino and Copeland, 2008).

The target of the next test is VEGFr (Homo sapiens, UniProt P35968). Description: Binding kinetics assay (surface plasmon resonance) VEGFR. As to conditions: SPR, 22 °C.
Text: as §2
as §3, with “Immobilization was performed at 4 °C. Subsequent assay steps were conducted at 22 °C. After changing buffer to Biacore buffer with 1% (v/v) dimethylsulfoxide (DMSO), a pre-run was performed for a period of at least 30 min at a flow rate of 30 μl/min to obtain a stable surface.” left out, “Experiments were performed with an association time of 100 s per concentration and a dissociation time of 1200 s, except for compounds with a long target residence time, such as irreversible inhibitors, where dissociation time was increased. To circumvent problems of mass transport limitation, a flow rate of 30 μl/min was used. A blank run with the same conditions was performed before the compound was injected.” left out, “First the reference channel was subtracted from the channel containing immobilized protein. Subsequently, the reference curve obtained with buffer injections was subtracted. The resulting curve was fitted with a 1:1 binding model. Compounds that bound according to an induced fit model were fitted with a two-state reaction model. The kinetic constants (ka, ka, KD) of duplicates were geometrically averaged.” left out

The subject of test [2] is CTV-1 T acute lymphoblastic leukemia cells. Put plainly: Cell proliferation assay CTV-1. As to conditions: read-out: IC50 value, CTV-1 cells, 72 hours. On the procedure: as §1, with “CTV-1 T” for “MOLM-13”, “lymphoblastic” for “myelogenous”, “40,” for “554,”, “1600” for “800”
A further test has as its target MEK1 (Homo sapiens, UniProt Q02750). Description: Binding kinetics assay (surface plasmon resonance) MEK1. As to conditions: MEK1, SPR, 22 °C. On the procedure: as §2
Streptavidin-coated chips (Cat. No. BR100531), disposables and maintenance kits for Biacore were purchased from Cytiva (Eindhoven, The Netherlands). […] The kinetic constants of the compounds were determined with single cycle kinetics with five consecutive injections with an increasing compound concentration with ranges of 3.16-316 nM. […] The SPR sensorgrams were analyzed with Biacore Evaluation Software by using a method of double referencing. […] Target residence time (τ) for the 1:1 binding model was calculated from the dissociation constant kd with the formula T=1/kd. Target residence for an induced fit model was calculated as described (Tummino and Copeland, 2008).

Molecules are shown by their SMILES.

As to `CC(C)(C)c1cc(NC(=O)Cc2ccc(-c3nc4n5c(cnc(N)c35)/C=C/CCOCCC(=O)N[C@@H]3CCC[C@@H]4C3)cc2)no1`, the IC50 in test [1] is less than 75 nM. Further, at RET, the Kd is less than 5 nM and the “Target residence time Tau (τ)” value is “C (τ 3 h)”.
As for `Nc1ncc2c3c1c(-c1ccc(C(=O)Nc4cc(C(F)(F)F)ccn4)cc1)nn3[C@@H]1CCC[C@H](C1)NC(=O)[C@H]1CN(C/C=C/2)CCN1`, the “Target residence time Tau (τ)” value was “C (τ 3 h)” on BTK (Act); “B (τ between 1 and 3 h)” at VEGFr. Also, the Kd on VEGFr and on MEK1 was less than 5 nM in each case. Moreover, the IC50 in test [2] is less than 50 nM.
